Results reported in patent US20040096845A1, “Peritoneal dialysates” (priority 2000, published 2004).
Where two headings read alike, the source gives them in different places.

Chains of the proteins cited; added tags and fusions are not shown. Residues count along the entry.
UniProt P02768, 25-609: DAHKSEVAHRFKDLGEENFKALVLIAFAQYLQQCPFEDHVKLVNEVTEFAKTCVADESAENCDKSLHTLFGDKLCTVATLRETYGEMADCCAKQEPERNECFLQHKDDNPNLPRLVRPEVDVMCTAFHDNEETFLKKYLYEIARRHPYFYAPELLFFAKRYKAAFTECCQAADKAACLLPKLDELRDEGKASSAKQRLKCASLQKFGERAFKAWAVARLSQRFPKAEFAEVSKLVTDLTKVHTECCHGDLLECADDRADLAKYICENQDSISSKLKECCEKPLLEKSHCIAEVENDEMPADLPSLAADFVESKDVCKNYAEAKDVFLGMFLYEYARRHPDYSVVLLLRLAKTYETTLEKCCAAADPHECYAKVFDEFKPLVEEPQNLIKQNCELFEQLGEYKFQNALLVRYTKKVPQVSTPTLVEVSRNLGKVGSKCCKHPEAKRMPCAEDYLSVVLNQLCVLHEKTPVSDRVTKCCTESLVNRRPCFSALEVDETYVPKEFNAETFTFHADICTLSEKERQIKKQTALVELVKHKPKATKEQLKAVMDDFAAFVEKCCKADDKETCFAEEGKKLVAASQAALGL

Tests used:
human serum albumin [1] = type: biochemical
human serum albumin [2] = molecular target: human serum albumin (Homo sapiens, UniProt P02768)
human serum albumin [3] = assay: Suppression of methylglyoxal-induced cross linking of human serum albumin, by fluorescent intensity; type: biochemical

| Compound | Increase in FI (%) (human serum albumin [1]) | Increase in FI (%) (human serum albumin [3]) | other results |
| --- | --- | --- | --- |
| CC(=O)SC1CC(=O)OC1=O (centres unmarked) [S-Acetylmercaptosuccinic anhydride] | 50% |  |  |
| O=C(C[n+]1ccsc1)c1ccccc1.[Br-] [N-Phenacyl thiazolium bromide, reference compound] |  |  | Decrease % (FI, 14th day vs 7th day) (human serum albumin [2]; albumin 50 mg/ml pre-incubated with 3-deoxyglucosone 50 mM/l 7 days, dialysed, additive 20 mM/l in ethanol : phosphate buffer 1:1, another 7 days 37° C.): −21% |
| O.Oc1ccc(-c2nnns2)cc1 [4-(1,2,3,4-thiatriazo)phenol hydrate] |  | 92% |  |
| OCCS [2-Mercaptoethanol] | 42% |  |  |
| Catechin dihydrate |  |  | Decrease % (FI, 14th day vs 7th day) (human serum albumin [2]): −4% |
| O[C@H](CS)[C@@H](O)CS [Dithio erythrytol] | 31% |  |  |
| CC(=O)N[C@@H](CS)C(=O)O [N-Acetylcysteine, reference compound] | 7% |  |  |
| O.O.O=c1c(O)c(-c2ccc(O)c(O)c2)oc2cc(O)cc(O)c12 [Quercetin dihydrate] |  | 19% |  |
| O=S([O-])[O-].[Na+].[Na+] [Sodium sulfite] |  | 61% |  |
| N[C@@H](CCC(=O)N[C@@H](CS)C(=O)NCC(=O)O)C(=O)O [Glutathione] | 25% |  |  |
| Catechin hydrate |  | 64% |  |
| Nc1ccc(S(=O)(=O)Nc2nccs2)cc1 [reference compound] |  |  | Increase in FI (%) (human serum albumin [3]; methylglyoxal, human serum albumin, suppressor dissolved in dimethylsulfoxide : phosphate buffer solution 1:3, relative to Control 2 = 100): 45% |
| O=S([O-])O.[Na+] [Sodium bisulfite] |  | 46% |  |
| 2-mercapto-4-methyl-thiazole acetic acid |  | 82% |  |
